{
  "source": "patent US12115226B2",
  "about": "“Linker containing arylnitro, antibody-drug conjugate containing linker and use of linker” (Academy of Military Medical Sciences, priority 2018, dated 2024)",
  "key": {"[1]": {"tested_on": "antigen HER2-positive breast cancer cell line BT-474", "experiment": "In vitro cytotoxicity of ADC (CellTiter Glo), BT-474", "type": "cell-based, human", "protocol": "(§1) The vial containing the target cells was gently stirred in a 37° C. water bath to be thawed.\n(§2) After the content was thawed, the vial was taken out from the water bath and decontaminated by immersion or spraying with 70% ethanol.\n(§3) The cells were re-suspended in the culture medium, settled and distributed into a culture flask with an area of 75 cm^2.\n(§4) The resulting culture was incubated in a Galaxy® CO2 incubator (48R, #C048312044) with 5% CO2 at 37° C., and the oxygen concentration in the incubator was 0.1%.\n(§5) The cells were passaged three times a week at a ratio of 1:4 in a medium containing 10% […] (heat inactivated) and 1% penicillin-streptomycin solution.\n(§6) For the passaged cells, the adherent cells were firstly rinsed with trypsin/EDTA solution (3 mL), then trypsin/EDTA (3 mL, T75 flask) was added, and spun to coat the cells evenly. The resulting culture was incubated at 37° C. until the cells were detached. It was observed by microscope to verify that the cells had been detached, then an equal volume of cell culture medium was added to inactivate trypsin, the detached cells were collected, and centrifuged at 200 g for 5 minutes, and then re-suspended in a fresh culture medium. […]\n(§7) The cells were harvested and counted to determine the number of cells;"}, "[2]": {"tested_on": "antigen HER2-positive gastric cancer cell line NCI-N87", "experiment": "In vitro cytotoxicity of ADC (CellTiter Glo), NCI-N87", "type": "cell-based, human", "protocol": "as §1, §2, §3, §4, §5, §6, §7"}, "[3]": {"tested_on": "antigen HER2-positive breast cancer cell line HCC1954", "experiment": "In vitro cytotoxicity of ADC (CellTiter Glo), HCC1954", "type": "cell-based", "protocol": "as §1, §2, §3, §4, §5, §6, §7"}, "[4]": {"tested_on": "antigen HER2-weakly positive breast cancer cell line MCF-7", "experiment": "In vitro cytotoxicity of ADC (CellTiter Glo), MCF-7", "type": "cell-based", "protocol": "as §1, §2, §3, §4, §5, §6, §7"}, "[5]": {"tested_on": "antigen HER2-negative breast cancer cell line MDA-MB-468", "experiment": "In vitro cytotoxicity of ADC (CellTiter Glo), MDA-MB-468", "type": "cell-based", "protocol": "as §1, §2, §3, §4, §5, §6, §7"}, "[6]": {"experiment": "In vivo safety evaluation, maximum tolerated dose (MTD) in normal CD-1 mice", "conditions": "tail vein, doses 10, 20, 40, 80 and 120"}},
  "data": [
    {"substance": "MAB: anti-HER2 humanized monoclonal antibody mil40, a biosimilar of Herceptin, purchased from Zhejiang Hisun Pharmaceutical", "values": [
      {"measurement": "IC50", "setting": "[1]", "result": 84.1, "unit": "nM"},
      {"measurement": "IC50", "setting": "[2]", "result": 28.5, "unit": "nM"},
      {"measurement": "IC50", "setting": "[3]", "result": 240, "unit": "nM"},
      {"measurement": "IC50", "setting": "[4]", "result": 4190, "unit": "nM"},
      {"measurement": "IC50", "setting": "[5]", "result": 1840, "unit": "nM"},
      {"measurement": "tolerability (adverse reactions, body weight, death)", "setting": "[6]", "result": "no obvious adverse reactions, body weight loss or death of animals"}
    ]}
  ]
}
